For data set [1], the system named is human induced pluripotent stem cell-derived cardiomyocytes (hiPSC-CMs). Description: Multi-electrode Array (MEA) field potential recording of hiPSC-CMs. The settings on record: for toxicity of ondansetron: ondansetron 120 µg/L. The source says:
A stem cell cardiac electrophysiology research and development platform was used to screen drug combination regimens. The basic procedure was as follows: • (1) Human induced pluripotent stem cell-derived cardiomyocytes were thawed and seeded onto Multi-electrode Array (MEA) cell culture plates, with the cell culture medium changed daily. • (2) After approximately 4 to 8 days, recording of cardiac cell electrical signals began. Baseline cardiac cell electrical signals prior to drug administration, as well as cardiac cell electrical signal data following the addition of drugs such as ondansetron and diltiazem, were recorded. • (3) Differences in electrical signals under the influence of different drugs were compared, the data were analyzed, and graphs for comparison were generated.
Human induced pluripotent stem cell-derived cardiomyocytes (hiPSC-CMs) were thawed and seeded onto a Multiple-electrode Array (MEA) plate pre-coated with hiPSC-CM coating solution. hiPSC-CM maintenance medium was used for medium changes, and thereafter the cell culture medium was changed daily until the completion of drug administration and recording. After 4-8 days of culture on the MEA plate, recording of cardiac electrical signals could begin. Baseline cardiac cell electrical signals were recorded prior to drug administration. Following the addition of ondansetron, cardiac electrical signal data were recorded. Subsequently, drugs such as diltiazem were added, and cardiac cell electrical signals were recorded. The recorded electrical signal data were analyzed, exported to Excel, and then plotted and analyzed using GraphPad.

A short description of data set [2]: influence factor tests (light protection, high temperature, light exposure). An excerpt:
Herein, API-1 is ondansetron, and API-2 is diltiazem. […] Under high temperature and light protection conditions, API-1 has essentially no significant effect on the stability of API-2.

A short description of data set [3]: stability test of the laboratory-optimized formulation at 2-8°C and 25°C. The source says: As of July 19, 2022, 83,849 people had reported experiencing side effects while taking ondansetron, of whom 3,448 (4.11%) died. […] FPDc (the rate corrected field potential duration) represents the heart rate-corrected field potential duration and is equivalent to the QT interval in an electrocardiogram. […] Herein, API-1 is ondansetron, and API-2 is diltiazem. […] Under high temperature and light protection conditions, API-1 has essentially no significant effect on the stability of API-2. […] API-2 (diltiazem) remains relatively stable when stored at 2-8°C; however, under 25°C conditions, it primarily generates a degradation impurity, API-2F.

The conditions of data set [4]: as of July 19, 2022; cited from earlier work.

Structures are written as SMILES.

As to `CC(C)NCC(O)COc1ccc(CC(N)=O)cc1` (stereo not drawn), the toxicity of ondansetron result in data set [1] (atenolol 4.79 mg/L) was “could not eliminate”.
For the compound `CC1=NS(=O)(=O)c2cc(Cl)ccc2N1`, the toxicity of ondansetron result in data set [1] (diazoxide 6.92 mg/L) is recorded as “could not eliminate”.
For the compound `Cc1nccn1CC1CCc2c(c3ccccc3n2C)C1=O` (stereo not drawn), the “stability of API-1” value in data set [2] (high temperature and light protection) was “relatively stable”. Besides, the “stability of API-1” value in data set [2] (light exposure) is “unstable”. Moreover, in data set [3] (2-8°C and 25°C), the “stability (related substances)” value is on record as “no significant changes”. In addition, in data set [4], the “people reported experiencing side effects while taking ondansetron” value is given as 83,849, the “people who died among those reporting side effects” value is 3,448 and the “share who died among those reporting side effects” value is 4.11%. Also, the “FPDc (the rate corrected field potential duration)” value in data set [1] (ondansetron alone 120 µg/L, compared to the control group) is on record as “significantly increased”.
Take `COc1ccc([C@@H]2Sc3ccccc3N(CCN(C)C)C(=O)[C@@H]2OC(C)=O)cc1`: the entries for the “stability of API-2” value in data set [2] (high temperature), in data set [2] (light exposure) and in data set [2] (light protection) were “unstable”, “unstable” and “stable”, respectively. Besides, the stability entry in data set [3] (25°C) is reported as “primarily generates a degradation impurity, API-2F”; in data set [3] (stored at 2-8°C), “remains relatively stable”. Moreover, in data set [1] (diltiazem 8.12 µg/L added to ondansetron 120 µg/L), the “ondansetron-induced cardiac electrical activity disorder in cardiomyocytes” value is “can effectively reverse”.
